Molecular target: Neuronal acetylcholine receptor subunit alpha-7 (Homo sapiens, UniProt P36544)

Sequences of proteins named here, by UniProt entry; tags and fusion partners are left off. Residues count along the entry.
UniProt P36544, 23-502 limits assumed: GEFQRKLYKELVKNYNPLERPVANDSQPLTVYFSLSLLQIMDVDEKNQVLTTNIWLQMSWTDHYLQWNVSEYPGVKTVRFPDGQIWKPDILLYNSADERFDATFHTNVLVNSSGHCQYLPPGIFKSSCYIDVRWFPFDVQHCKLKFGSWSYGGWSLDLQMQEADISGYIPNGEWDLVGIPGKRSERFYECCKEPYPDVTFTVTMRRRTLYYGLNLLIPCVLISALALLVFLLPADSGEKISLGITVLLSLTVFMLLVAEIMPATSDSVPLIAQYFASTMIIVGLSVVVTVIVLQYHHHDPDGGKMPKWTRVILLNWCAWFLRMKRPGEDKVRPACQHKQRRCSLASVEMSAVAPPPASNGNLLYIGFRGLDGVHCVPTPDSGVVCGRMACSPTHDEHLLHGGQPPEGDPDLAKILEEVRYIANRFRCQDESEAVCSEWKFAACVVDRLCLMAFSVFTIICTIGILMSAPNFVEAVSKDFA

Row | Compound | Ki
1 | Cc1nc2cc(C(=O)N[C@@H]3C4CCN(CC4)C34CC4)ccc2o1 | 4300 nM
2 | Cc1cc2cc(C(=O)N[C@@H]3C4CCN(CC4)C34CC4)ccc2o1 | 490 nM
3 | CC1(C)[C@H](NC(=O)c2cc3cc(F)c(Cl)cc3s2)C2CCN1CC2 | 750 nM
4 | O=C(N[C@@H]1C2CCN(CC2)C12CC2)c1cc2ccoc2cn1 | 250 nM
5 | O=C(N[C@@H]1C2CCN(CC2)C12CC2)c1cc2ccc(Cl)c(F)c2s1 | 240 nM
6 | O=C(N[C@@H]1C2CCN(CC2)C12CC2)c1cc2ccc(F)c(Cl)c2s1 | 200 nM
7 | O=C(N[C@@H]1C2CCN(CC2)C12CC2)c1cc2ccc(C3CCOCC3)cc2s1 | 20000 nM
8 | O=C(N[C@@H]1C2CCN(CC2)C12CC2)c1cc2ccc(C3CC3)c(F)c2s1 | 1200 nM
9 | COc1c(C)ccc2cc(C(=O)N[C@@H]3C4CCN(CC4)C3(C)C)sc12 | 560 nM
10 | Cc1nc2cc(C(=O)N[C@@H]3C4CCN(CC4)C3(C)C)ccc2s1 | 4600 nM
11 | CC1(C)[C@H](NC(=O)c2nc3ccccc3o2)C2CCN1CC2 | 2700 nM
12 | Cc1cc2ccc(C(=O)N[C@@H]3C4CCN(CC4)C34CC4)cc2s1 | 160 nM
13 | COCc1ccc2cc(C(=O)N[C@@H]3C4CCN(CC4)C34CC4)sc2c1 | 1800 nM
14 | COc1ccc2cc(C(=O)N[C@@H]3C4CCN(CC4)C34CC4)sc2c1F | 780 nM
15 | Cn1c(C(=O)N[C@@H]2C3CCN(CC3)C2(C)C)cc2ccccc21 | 5400 nM
16 | CC1(C)[C@H](NC(=O)c2ccc3cc(Cl)sc3c2)C2CCN1CC2 | 550 nM
17 | CC1(C)[C@H](NC(=O)c2cc3ccncc3s2)C2CCN1CC2 | 5400 nM
18 | COc1ccc2cc(C(=O)N[C@@H]3C4CCN(CC4)C34CC4)sc2c1Cl | 800 nM
19 | O=C(N[C@@H]1C2CCN(CC2)C12CC2)c1cc2ccc3c(c2s1)OCCC3 | 150 nM
20 | Cn1cnc2ccc(C(=O)N[C@@H]3C4CCN(CC4)C34CC4)cc21 | 18000 nM
21 | COCc1cccc2cc(C(=O)N[C@@H]3C4CCN(CC4)C3(C)C)sc12 | 155 nM
22 | COc1ccc2cc(C(=O)N[C@H]3C4CCN(CC4)C3(C)C)sc2c1 | 14000 nM
23 | CC1(C)[C@H](NC(=O)c2ccc3c(c2)OCCO3)C2CCN1CC2 | 12000 nM
24 | COc1cc2sc(C(=O)N[C@@H]3C4CCN(CC4)C3(C)C)cc2cc1F | 1600 nM
25 | CC1(C)[C@H](NC(=O)c2noc3ccccc23)C2CCN1CC2 | 12000 nM
26 | Nc1ncc2cc(C(=O)N[C@@H]3C4CCN(CC4)C34CC4)sc2n1 | 790 nM
27 | Cc1ccc2cc(C(=O)N[C@@H]3C4CCN(CC4)C3(C)C)sc2c1C(F)(F)F | 710 nM

Row | Compound | Ki
28 | Cc1nc2ccc(C(=O)N[C@@H]3C4CCN(CC4)C34CC4)cc2s1 | 6400 nM
29 | CC1(C)[C@@H](NC(=O)c2cc3cccc(Cl)c3s2)C2CCN1CC2 | 3800 nM
30 | COc1c(Cl)ccc2cc(C(=O)N[C@@H]3C4CCN(CC4)C34CC4)sc12 | 220 nM
31 | CC1(C)[C@H](NC(=O)c2ccc3cc[nH]c3c2)C2CCN1CC2 | 1100 nM
32 | COc1c(C)ccc2cc(C(=O)N[C@@H]3C4CCN(CC4)C34CC4)sc12 | 300 nM
33 | Cc1ccc2cc(C(=O)N[C@@H]3C4CCN(CC4)C34CC4)sc2c1C#N | 190 nM
34 | CN(C)c1cccc2cc(C(=O)N[C@@H]3C4CCN(CC4)C3(C)C)sc12 | 1600 nM
35 | COc1ccc2cc(C(=O)N[C@@H]3C4CCN(CC4)C3(C)C)sc2c1C(F)(F)F | 8400 nM
36 | O=C(N[C@@H]1C2CCN(CC2)C12CC2)c1ccc2[nH]ccc2c1 | 4000 nM
37 | COc1c(F)ccc2cc(C(=O)N[C@@H]3C4CCN(CC4)C3(C)C)sc12 | 570 nM
38 | CC(C)(C)c1cccc2cc(C(=O)N[C@@H]3C4CCN(CC4)C34CC4)sc12 | 480 nM
39 | O=C(N[C@@H]1C2CCN(CC2)C12CC2)c1nc2ccccc2o1 | 1300 nM
40 | Cc1nc2ccc(C(=O)N[C@@H]3C4CCN(CC4)C34CC4)cc2o1 | 15000 nM
41 | CC1(C)[C@H](NC(=O)c2cc3ccc(N)cc3s2)C2CCN1CC2 | 550 nM
42 | Cn1c(C(=O)N[C@@H]2C3CCN(CC3)C23CC3)cc2ccccc21 | 2200 nM
43 | O=C(N[C@@H]1C2CCN(CC2)C12CC2)c1cc2ccc(Cl)c(C(F)(F)F)c2s1 | 310 nM
44 | COc1cc2sc(C(=O)N[C@@H]3C4CCN(CC4)C34CC4)cc2cc1F | 565 nM
45 | CC1(C)[C@H](NC(=O)c2ccc3ncccc3c2)C2CCN1CC2 | > 30000 nM
46 | O=C(N[C@H]1C2CCN(CC2)C12CC2)c1cc2ccoc2cn1 | 11000 nM
47 | O=C(N[C@@H]1C2CCN(CC2)C12CC2)c1cc2ccc(F)c(C(F)(F)F)c2s1 | 1600 nM
48 | CC1(C)[C@H](NC(=O)c2cc3ccc(Cl)cc3o2)C2CCN1CC2 | 4000 nM
49 | CC1(C)[C@H](NC(=O)c2cc3cc(F)c(Cl)c(F)c3s2)C2CCN1CC2 | 1100 nM
50 | CC1(C)[C@H](NC(=O)c2n[nH]c3ccccc23)C2CCN1CC2 | 570 nM
51 | O=C(N[C@@H]1C2CCN(CC2)C12CC2)c1cc2ccc(Br)cc2s1 | 250 nM
52 | Cc1cccc2cc(C(=O)N[C@@H]3C4CCN(CC4)C3(C)C)sc12 | 140 nM
53 | O=C(N[C@@H]1C2CCN(CC2)C12CC2)c1ccc2occc2n1 | 20000 nM
54 | CC1(C)[C@H](NC(=O)c2cc3cccc(F)c3s2)C2CCN1CC2 | 240 nM

From ChEMBL document CHEMBL5726183, “Geminal substituted quinuclidine amide compounds as agonists of α-7 nicotonic acetylcholine receptors” (2019)
